For test [1], the target named is T1, Tyrosine-protein phosphatase non-receptor type 1 (Homo sapiens) (UniProt P18031).
T1 sequence (whole entry): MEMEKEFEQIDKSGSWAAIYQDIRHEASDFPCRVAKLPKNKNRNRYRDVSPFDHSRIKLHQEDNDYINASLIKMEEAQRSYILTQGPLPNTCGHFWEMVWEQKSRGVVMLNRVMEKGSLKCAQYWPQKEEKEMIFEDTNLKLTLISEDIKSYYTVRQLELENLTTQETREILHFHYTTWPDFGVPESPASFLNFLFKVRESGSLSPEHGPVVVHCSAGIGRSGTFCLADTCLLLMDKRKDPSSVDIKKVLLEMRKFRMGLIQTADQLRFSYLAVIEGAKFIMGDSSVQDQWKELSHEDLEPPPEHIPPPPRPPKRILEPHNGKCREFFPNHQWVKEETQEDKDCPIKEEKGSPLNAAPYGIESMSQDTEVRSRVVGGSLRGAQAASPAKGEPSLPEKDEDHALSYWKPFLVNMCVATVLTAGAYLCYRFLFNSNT
As to the kind of experiment: Ratio between dissociation constant and First-order rate constant (Ki / K inact) was determined.

The target of test [2] is T1, Tyrosine-protein phosphatase non-receptor type 1 (Homo sapiens). Description: First-order rate constant (K inact) for conversion of the ExI complex (Protein-tyrosine phosphatase 1B -inhibitor complex) into the covalent adduct, EI was determined using PNP as substrate.

The term kinact denotes the maximal first-order rate at which the target is inactivated.

Molecules are shown by their SMILES.

For `COc1ccc(C(=O)CBr)cc1`, the Ratio in test [1] came to 18000 M⁻¹ min⁻¹. The maximal inactivation rate constant (kinact) in test [2] was determined as 2.4 min⁻¹.
With `O=C(CBr)c1ccc([N+](=O)[O-])cc1`, the Ratio in test [1] was found to be 14800 M⁻¹ min⁻¹. Besides, the kinact in test [2] worked out at 2.9 min⁻¹.
